Residue numbers refer to the chain shown, from its start.
Experiment: Stability at elevated temperatures: concentration of supernatant (OD280) after heating
Type: physicochemical
[1] = 37° C., percentage of the concentration at room temperature, Table 26
[2] = 50° C., percentage of the concentration at room temperature, Table 26
[3] = 60° C., percentage of the concentration at room temperature, Table 26
[4] = 70° C., percentage of the concentration at room temperature, Table 26
[5] = 80° C., percentage of the concentration at room temperature, Table 26
[6] = 90° C., percentage of the concentration at room temperature, Table 26
[7] = RT, OD280 nm concentration of supernatant as percentage of the concentration at room temperature, Table 26
[8] = 37° C., percentage of the concentration at room temperature, Table 30
[9] = 50° C., percentage of the concentration at room temperature, Table 30
[10] = 60° C., percentage of the concentration at room temperature, Table 30
[11] = 70° C., percentage of the concentration at room temperature, Table 30
[12] = 80° C., percentage of the concentration at room temperature, Table 30
[13] = 90° C., percentage of the concentration at room temperature, Table 30
[14] = RT, OD280 nm concentration of supernatant as percentage of the concentration at room temperature, Table 30

B1: 12A5-GS9-12A5 (protein)
chain: AVQLVESGGGLVQPGGSLRLSCLASGRIFSIGAMGMYRQAPGKQRELVATITSGGSTNYADPVKGRFTISRDGPKNTVYLQMNSLKPEDTAVYYCYANLKQGSYGYRFNDYWGQGTQVTVSSGGGGSGGGSEVQLVESGGGLVQPGGSLRLSCLASGRIFSIGAMGMYRQAPGKQRELVATITSGGSTNYADPVKGRFTISRDGPKNTVYLQMNSLKPEDTAVYYCYANLKQGSYGYRFNDYWGQGTQVTVSS
Concentration after heating at increasing temperatures (37° C., Table 22): 104 | Concentration after heating at increasing temperatures (50° C., Table 22): 115 | Concentration after heating at increasing temperatures (60° C., Table 22): 32 | Concentration after heating at increasing temperatures (70° C., Table 22): 13 | Concentration after heating at increasing temperatures (80° C., Table 22): 14 | Concentration after heating at increasing temperatures (90° C., Table 22): 10 | Concentration after heating at increasing temperatures (RT, Table 22): 100

B2: 12A2-3a-12A2 (protein)
VHH: QVKLEESGGGLVQAGGALRLSCAASGRTFSYNPMGWFRQAPGKERDLVAAISRTGGSTYYPDSVEGRFTISRDNAKRMVYLQMNNLKPEDTAVYYCAAAGVRAEDGRVRTLPSEYTFWGQGTQVTVSSAAAEVQLVESGGGLVQAGGALRLSCAASGRTFSYNPMGWFRQAPGKERDLVAAISRTGGSTYYPDSVEGRFTISRDNAKRMVYLQMNNLKPEDTAVYYCAAAGVRAEDGRVRTLPSEYTFWGQGTQVTVSS
Concentration after heating at increasing temperatures (37° C., Table 21): 87 | Concentration after heating at increasing temperatures (50° C., Table 21): 88 | Concentration after heating at increasing temperatures (60° C., Table 21): 91 | Concentration after heating at increasing temperatures (70° C., Table 21): 55 | Concentration after heating at increasing temperatures (80° C., Table 21): 50 | Concentration after heating at increasing temperatures (90° C., Table 21): 43 | Concentration after heating at increasing temperatures (RT, Table 21): 100

B3: 12A5-3a-12A5 (protein)
VHH: AVQLVESGGGLVQPGGSLRLSCLASGRIFSIGAMGMYRQAPGKQRELVATITSGGSTNYADPVKGRFTISRDGPKNTVYLQMNSLKPEDTAVYYCYANLKQGSYGYRFNDYWGQGTQVTVSSAAAEVQLVESGGGLVQPGGSLRLSCLASGRIFSIGAMGMYRQAPGKQRELVATITSGGSTNYADPVKGRFTISRDGPKNTVYLQMNSLKPEDTAVYYCYANLKQGSYGYRFNDYWGQGTQVTVSS
Concentration after heating at increasing temperatures (37° C., Table 22): 101 | Concentration after heating at increasing temperatures (50° C., Table 22): 114 | Concentration after heating at increasing temperatures (60° C., Table 22): 29 | Concentration after heating at increasing temperatures (70° C., Table 22): 6 | Concentration after heating at increasing temperatures (80° C., Table 22): 4 | Concentration after heating at increasing temperatures (90° C., Table 22): 6 | Concentration after heating at increasing temperatures (RT, Table 22): 100

B4: 12B6H3: humanised 12B6 nanobody, SEQ ID NO: 88 (protein)
VHH: EVQLVESGGGLVQPGGSLRLSCAASGRTFSYNPMGWFRQAPGKGRDVVAAISRTGGSTYYARSVEGRFTISRDNAKNMVYLQMNSLRAEDTAVYYCAAAGVRAEDGRVRTLPSEYNFWGQGTQVTVSS
Concentration after heating at increasing temperatures [1]: 101% | Concentration after heating at increasing temperatures [2]: 98% | Concentration after heating at increasing temperatures [3]: 97% | Concentration after heating at increasing temperatures [4]: 74% | Concentration after heating at increasing temperatures [5]: 73% | Concentration after heating at increasing temperatures [6]: 65% | Concentration after heating at increasing temperatures [7]: 100%

B5: 12A2H11: humanised 12A2 nanobody, SEQ ID NO: 93 (protein)
VHH: B4 VHH with R27F, D46E, V47L, A61P, R62D, N77R, N116T
Concentration after heating at increasing temperatures [8]: 111% | Concentration after heating at increasing temperatures [9]: 113% | Concentration after heating at increasing temperatures [10]: 107% | Concentration after heating at increasing temperatures [11]: 103% | Concentration after heating at increasing temperatures [12]: 85% | Concentration after heating at increasing temperatures [13]: 67% | Concentration after heating at increasing temperatures [14]: 100%

B6: 12B6H1: humanised 12B6 nanobody, SEQ ID NO: 86 (protein)
VHH: B4 VHH with N77R
Concentration after heating at increasing temperatures [1]: 101% | Concentration after heating at increasing temperatures [2]: 100% | Concentration after heating at increasing temperatures [3]: 97% | Concentration after heating at increasing temperatures [4]: 45% | Concentration after heating at increasing temperatures [5]: 58% | Concentration after heating at increasing temperatures [6]: 54% | Concentration after heating at increasing temperatures [7]: 100%

B7: 12B6H2: humanised 12B6 nanobody, SEQ ID NO: 87 (protein)
VHH: B4 VHH with D46E, N77R
Concentration after heating at increasing temperatures [1]: 97% | Concentration after heating at increasing temperatures [2]: 96% | Concentration after heating at increasing temperatures [3]: 96% | Concentration after heating at increasing temperatures [4]: 83% | Concentration after heating at increasing temperatures [5]: 46% | Concentration after heating at increasing temperatures [6]: 53% | Concentration after heating at increasing temperatures [7]: 100%

B8: 12B6H4: humanised 12B6 nanobody, SEQ ID NO: 89 (protein)
VHH: B4 VHH with N77R, M78S
Concentration after heating at increasing temperatures [1]: 101% | Concentration after heating at increasing temperatures [2]: 100% | Concentration after heating at increasing temperatures [3]: 93% | Concentration after heating at increasing temperatures [4]: 41% | Concentration after heating at increasing temperatures [5]: 66% | Concentration after heating at increasing temperatures [6]: 54% | Concentration after heating at increasing temperatures [7]: 100%

B9: 12A2H3: humanised 12A2 nanobody, SEQ ID NO: 91 (protein)
VHH: B4 VHH with D46E, V47L, A61P, R62D, N116T
Concentration after heating at increasing temperatures [8]: 102% | Concentration after heating at increasing temperatures [9]: 101% | Concentration after heating at increasing temperatures [10]: 102% | Concentration after heating at increasing temperatures [11]: 102% | Concentration after heating at increasing temperatures [12]: 90% | Concentration after heating at increasing temperatures [13]: 89% | Concentration after heating at increasing temperatures [14]: 100%

B10: 12A2H13: humanised 12A2 nanobody, SEQ ID NO: 94 (protein)
VHH: B4 VHH with R27F, D46E, V47L, A61P, R62D, M78S, N116T, Q123L
Concentration after heating at increasing temperatures [8]: 104% | Concentration after heating at increasing temperatures [9]: 103% | Concentration after heating at increasing temperatures [10]: 103% | Concentration after heating at increasing temperatures [11]: 100% | Concentration after heating at increasing temperatures [12]: 90% | Concentration after heating at increasing temperatures [13]: 81% | Concentration after heating at increasing temperatures [14]: 100%

B11: 12B6-3a-12B6 (protein)
VHH: QVQLVESGGGLVQAGGALRLSCAASGRTFSYNPMGWFRQAPGKERDVVAAISRTGGSTYYARSVEGRFTISRDNAKRMVYLQMNALKPEDTAVYYCAAAGVRAEDGRVRTLPSEYNFWGQGTQVTVSSAAAEVQLVESGGGLVQAGGALRLSCAASGRTFSYNPMGWFRQAPGKERDVVAAISRTGGSTYYARSVEGRFTISRDNAKRMVYLQMNALKPEDTAVYYCAAAGVRAEDGRVRTLPSEYNFWGQGTQVTVSS
Concentration after heating at increasing temperatures (37° C., Table 20): 103 | Concentration after heating at increasing temperatures (50° C., Table 20): 96 | Concentration after heating at increasing temperatures (60° C., Table 20): 87 | Concentration after heating at increasing temperatures (70° C., Table 20): 9 | Concentration after heating at increasing temperatures (80° C., Table 20): 8 | Concentration after heating at increasing temperatures (90° C., Table 20): 6 | Concentration after heating at increasing temperatures (RT, Table 20): 100

B12: 12B6-GS9-12B6 (protein)
chain: QVQLVESGGGLVQAGGALRLSCAASGRTFSYNPMGWFRQAPGKERDVVAAISRTGGSTYYARSVEGRFTISRDNAKRMVYLQMNALKPEDTAVYYCAAAGVRAEDGRVRTLPSEYNFWGQGTQVTVSSGGGGSGGGSEVQLVESGGGLVQAGGALRLSCAASGRTFSYNPMGWFRQAPGKERDVVAAISRTGGSTYYARSVEGRFTISRDNAKRMVYLQMNALKPEDTAVYYCAAAGVRAEDGRVRTLPSEYNFWGQGTQVTVSS
Concentration after heating at increasing temperatures (37° C., Table 20): 103 | Concentration after heating at increasing temperatures (50° C., Table 20): 94 | Concentration after heating at increasing temperatures (60° C., Table 20): 88 | Concentration after heating at increasing temperatures (70° C., Table 20): 19 | Concentration after heating at increasing temperatures (80° C., Table 20): 8 | Concentration after heating at increasing temperatures (90° C., Table 20): 7 | Concentration after heating at increasing temperatures (RT, Table 20): 100

B13: 12A2-GS9-12A2 (protein)
VHH: QVKLEESGGGLVQAGGALRLSCAASGRTFSYNPMGWFRQAPGKERDLVAAISRTGGSTYYPDSVEGRFTISRDNAKRMVYLQMNNLKPEDTAVYYCAAAGVRAEDGRVRTLPSEYTFWGQGTQVTVSSGGGGSGGGSEVQLVESGGGLVQAGGALRLSCAASGRTFSYNPMGWFRQAPGKERDLVAAISRTGGSTYYPDSVEGRFTISRDNAKRMVYLQMNNLKPEDTAVYYCAAAGVRAEDGRVRTLPSEYTFWGQGTQVTVSS
Concentration after heating at increasing temperatures (37° C., Table 21): 102 | Concentration after heating at increasing temperatures (50° C., Table 21): 113 | Concentration after heating at increasing temperatures (60° C., Table 21): 138 | Concentration after heating at increasing temperatures (70° C., Table 21): 91 | Concentration after heating at increasing temperatures (80° C., Table 21): 13 | Concentration after heating at increasing temperatures (90° C., Table 21): 15 | Concentration after heating at increasing temperatures (RT, Table 21): 100

Reference: patent US7807162B2, “Single domain VHH antibodies against von Willebrand factor” (Ablynx N.V., priority 2005, dated 2010)
